Antibody variant affinities, Ab-95 light chain, assay 2

Data: MIT Lincoln Laboratory AlphaSeq set, Engelhart et al. 2022, doi:10.1038/s41597-022-01779-4, as distributed in FLAb.

Binding partner: SARS-CoV-2 spike HR2 peptide, sequence PDVDLGDISGINAS.

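The starting antibody came from a phage panning campaign against this peptide. Variants in AAYL52 differ from the parent at up to three CDR positions; double and triple changes were sampled at random. Affinity was read by AlphaSeq, a pooled yeast mating assay with surface-displayed partners. The frequency of each diploid, read from paired DNA barcodes, reflects how well the two displayed proteins bind. A regression on co-assayed BCL2-family reference pairs converts the normalised counts of each replicate to an apparent Kd. Each pool was mated in three replicate cultures.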

Each scFv is VH, a (GGGGS)3 linker, VL, as in the parent Ab-95, and differs from it in the CDRs of the light chain only.
VH: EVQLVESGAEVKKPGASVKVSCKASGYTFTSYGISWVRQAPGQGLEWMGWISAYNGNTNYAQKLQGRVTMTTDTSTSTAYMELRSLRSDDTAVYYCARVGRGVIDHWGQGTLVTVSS
VL: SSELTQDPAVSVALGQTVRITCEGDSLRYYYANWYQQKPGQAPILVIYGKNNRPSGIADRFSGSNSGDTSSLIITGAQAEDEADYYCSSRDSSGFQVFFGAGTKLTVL

Each variant's VL is given in full. Every variant below is changed at A32 of the VL (sequential numbering). Values are log10 of the apparent Kd in nM; lower means stronger binding. The mean shown is taken over the replicates in which the pair was detected. An entry "nd" has no value in the source: the pair was not observed among the diploids in any replicate. This suggests poor binding but is not conclusive. As a blank, each scFv also met three strains without target: over library AAYL52, 28% of these pairings were detected, typically at 3.91 and seldom below 2.90.

Variant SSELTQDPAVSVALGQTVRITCEGDSLRYYYWNWYQQKPGQAPILVIYGKNNSPQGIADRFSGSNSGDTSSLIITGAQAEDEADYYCSSRDSSGFQVFFGAGTKLTVL gave 3.60 (2 of 3 replicates). For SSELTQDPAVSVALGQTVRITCEGDSLRYYYGNWYQQKPGQAPILVIYGKNNRPSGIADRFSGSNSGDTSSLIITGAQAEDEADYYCSSRDSSGAQVFFGAGTKLTVL, the assay gave 2.65 (3 of 3 replicates). Variant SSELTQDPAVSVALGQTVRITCEGDSLRYYYGNWYQQKPGQAPILVIYGLNNRPSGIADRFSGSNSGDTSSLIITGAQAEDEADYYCSSRDSSGFQVFFGAGTKLTVL gave 3.95 (2 of 3 replicates). Variant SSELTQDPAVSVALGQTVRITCEGDSLRYYYINWYQQKPGQAPILVIYGKNNRPSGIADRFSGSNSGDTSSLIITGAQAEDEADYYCSNRASSGFQVFFGAGTKLTVL showed nd (0 of 3 replicates). Variant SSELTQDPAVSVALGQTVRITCEGDSRRYYYVNWYQQKPGQAPILVIYGKNNRPSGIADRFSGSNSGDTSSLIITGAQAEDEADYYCSSRDSSGFQVFFGAGTKLTVL gave 3.53 (3 of 3 replicates). With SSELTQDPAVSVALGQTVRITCEGDSDRYYYMNWYQQKPGQAPILVIYGKNNRPSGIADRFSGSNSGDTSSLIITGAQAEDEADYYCSSRDSSGFQVFFGAGTKLTVL the result was 3.36 (3 of 3 replicates). Variant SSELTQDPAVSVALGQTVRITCEGDSLRYYYQDWYQQKPGQAPILVIYGKNNRPSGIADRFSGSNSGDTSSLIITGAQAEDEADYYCSSTDSSGFQVFFGAGTKLTVL gave nd (0 of 3 replicates). With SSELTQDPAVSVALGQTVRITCEGDSLRYYYFNWYQQKPGQAPILVIYGKNTRPSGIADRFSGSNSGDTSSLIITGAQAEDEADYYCSSRDSSGFQVFFGAGTKLTVL the result was 4.50 (2 of 3 replicates).

Variant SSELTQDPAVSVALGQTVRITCEGDSLRYSYHNWYQQKPGQAPILVIYGKNNRPSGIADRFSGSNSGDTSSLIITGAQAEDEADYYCSSRDSSGFQVVFGAGTKLTVL showed 3.08 (3 of 3 replicates). Variant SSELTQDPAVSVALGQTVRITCEGDSLRYYYFNWYQQKPGQAPILVIYGKNNRPSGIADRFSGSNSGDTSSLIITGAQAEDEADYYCSSIDSSGKQVFFGAGTKLTVL showed 3.36 (2 of 3 replicates). Variant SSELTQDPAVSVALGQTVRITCEGDSLRYYYLNWYQQKPGQAPILVIYGKNNRPSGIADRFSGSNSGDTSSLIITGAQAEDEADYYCSSRDSSGFQVFFGAGTKLTVL gave 2.55 (3 of 3 replicates). Variant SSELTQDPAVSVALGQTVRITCEGDSLRYYYSNWYQQKPGQAPILVIYGKNNRPSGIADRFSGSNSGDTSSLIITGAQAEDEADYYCQSRDSSPFQVFFGAGTKLTVL showed 3.99 (3 of 3 replicates). With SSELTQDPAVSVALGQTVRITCEGDSLRYYYHNWYQQKPGQAPILVIYNKNNRPSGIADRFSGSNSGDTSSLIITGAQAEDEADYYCSSRCSSGFQVFFGAGTKLTVL the result was 3.47 (3 of 3 replicates). With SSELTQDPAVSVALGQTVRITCEGDSLRYYYMNWYQQKPGQAPILVIYGKNNRPWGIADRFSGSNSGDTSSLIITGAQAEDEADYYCSSRDSSHFQVFFGAGTKLTVL the result was nd (0 of 3 replicates). Variant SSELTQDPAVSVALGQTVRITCEGDSIRYYYSNWYQQKPGQAPILVIYGKNNRISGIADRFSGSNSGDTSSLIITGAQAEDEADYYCSSRDSSGFQVFFGAGTKLTVL showed 4.34 (1 of 3 replicates). Variant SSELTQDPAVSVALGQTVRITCEGDSLRYYYNNWYQQKPGQAPILVIYGKNNRPSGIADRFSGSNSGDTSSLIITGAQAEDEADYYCSSRDSSQFQVFFGAGTKLTVL gave 3.83 (3 of 3 replicates).

Variant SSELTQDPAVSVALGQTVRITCEGRSLRYVYVNWYQQKPGQAPILVIYGKNNRPSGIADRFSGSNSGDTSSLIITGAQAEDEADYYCSSRDSSGFQVFFGAGTKLTVL gave 2.20 (3 of 3 replicates). Variant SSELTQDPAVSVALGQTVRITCEGDSLRYDYDNWYQQKPGQAPILVIYGKNNRPSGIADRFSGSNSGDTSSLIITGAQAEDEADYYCSSRDSSGFQVFFGAGTKLTVL showed 4.13 (3 of 3 replicates). Variant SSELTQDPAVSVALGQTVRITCTGDSLRYYYENWYQQKPGQAPILVIYGKNNRPSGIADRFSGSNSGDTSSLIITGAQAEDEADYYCSSRDSSGNQVFFGAGTKLTVL gave 4.33 (2 of 3 replicates). Variant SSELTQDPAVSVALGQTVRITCEGDSLRMYYPNWYQQKPGQAPILVIYGKNNRPSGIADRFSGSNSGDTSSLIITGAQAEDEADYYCSHRDSSGFQVFFGAGTKLTVL showed 4.23 (3 of 3 replicates). Variant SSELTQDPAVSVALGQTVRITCEGDCLRYYYMNWYQQKPGQAPILVIYGKNNRPSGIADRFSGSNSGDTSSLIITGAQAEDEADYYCSSRDSSGIQVFFGAGTKLTVL gave nd (0 of 3 replicates). Variant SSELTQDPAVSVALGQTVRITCEGDSLLYYYINWYQQKPGQAPILVIYGKNNRPSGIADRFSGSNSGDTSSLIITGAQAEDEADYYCSSRDSSGFQPFFGAGTKLTVL gave 4.01 (3 of 3 replicates).

Picked from the list: the 2 lowest averages where every replicate gave a value.

The variant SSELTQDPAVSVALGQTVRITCEGRSLRYVYVNWYQQKPGQAPILVIYGKNNRPSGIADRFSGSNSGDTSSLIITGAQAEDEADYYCSSRDSSGFQVFFGAGTKLTVL gave 2.20 (3 of 3 replicates).
The variant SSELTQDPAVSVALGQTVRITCEGDSLRYYYLNWYQQKPGQAPILVIYGKNNRPSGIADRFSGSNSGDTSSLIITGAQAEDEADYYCSSRDSSGFQVFFGAGTKLTVL gave 2.55 (3 of 3 replicates).